# Data as given in ChEMBL document CHEMBL1134564, “Development of serine protease inhibitors displaying a multicentered short (<2.3 A) hydrogen bond binding mode: inhibitors of urokinase-type plasminogen activator and factor Xa” (J Med Chem, 2001).
# Sequences of proteins named here, by UniProt entry; tags and fusion partners are left off. Residues count along the entry.
# UniProt P07477, whole entry: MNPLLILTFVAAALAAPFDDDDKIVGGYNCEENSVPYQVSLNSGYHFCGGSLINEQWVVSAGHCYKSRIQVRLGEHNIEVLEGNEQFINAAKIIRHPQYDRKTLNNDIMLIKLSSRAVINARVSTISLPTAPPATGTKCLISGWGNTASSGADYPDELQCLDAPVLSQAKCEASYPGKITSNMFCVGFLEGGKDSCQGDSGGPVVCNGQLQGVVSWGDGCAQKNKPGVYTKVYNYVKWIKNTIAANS
# UniProt P00747, 97-580 limits assumed: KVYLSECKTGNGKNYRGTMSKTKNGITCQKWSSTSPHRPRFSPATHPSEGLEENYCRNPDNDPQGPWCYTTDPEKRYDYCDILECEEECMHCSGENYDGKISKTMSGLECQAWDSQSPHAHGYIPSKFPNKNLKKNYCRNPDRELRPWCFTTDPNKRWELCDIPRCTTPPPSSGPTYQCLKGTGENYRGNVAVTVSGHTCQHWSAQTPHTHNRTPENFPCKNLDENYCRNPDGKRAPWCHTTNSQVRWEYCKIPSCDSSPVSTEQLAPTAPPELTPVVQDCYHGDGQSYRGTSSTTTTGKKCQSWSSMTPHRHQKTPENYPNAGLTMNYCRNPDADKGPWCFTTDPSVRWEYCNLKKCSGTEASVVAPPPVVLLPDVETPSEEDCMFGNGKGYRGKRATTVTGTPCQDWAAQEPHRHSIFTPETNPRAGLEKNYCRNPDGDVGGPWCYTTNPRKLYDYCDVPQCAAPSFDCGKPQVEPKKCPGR
# UniProt P00747, 581-810 limits assumed: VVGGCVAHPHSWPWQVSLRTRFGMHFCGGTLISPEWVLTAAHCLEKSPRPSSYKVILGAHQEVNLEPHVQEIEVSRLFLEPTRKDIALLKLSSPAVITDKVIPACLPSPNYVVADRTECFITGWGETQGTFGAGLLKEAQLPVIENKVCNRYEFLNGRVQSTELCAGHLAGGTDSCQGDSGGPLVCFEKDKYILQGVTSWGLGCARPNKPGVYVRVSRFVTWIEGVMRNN
# Experiments:
# [1] = target: T1, Urokinase-type plasminogen activator (Homo sapiens, UniProt P00749); assay: ComInhibition of Human Serine Protease Urokinase Plasminogen Activator (u-PA).
# [2] = target: T1, Urokinase-type plasminogen activator
# Serine protease 1 = Serine protease 1 (Homo sapiens, UniProt P07477); assay: Inhibition of Human Serine Protease Trypsin.
# Plasminogen = Plasminogen (Homo sapiens, UniProt P00747); assay: Inhibition of Human Serine Protease Plasmin.
structure (smiles),measurement,setting,value
N=C(N)c1ccc2[nH]c(-c3cccc(Br)c3O)nc2c1,Ki,[1],250 nM
N=C(N)c1ccc2nc(-c3cccc(-c4ccccc4)c3O)[nH]c2c1,Ki,[2],400 nM
N=C(N)c1ccc2nc(-c3cc(F)ccc3O)[nH]c2c1,Ki,Serine protease 1,10000 nM
N=C(N)c1ccc2oc(-c3cccc(-c4ccccc4)c3O)cc2c1,Ki,[1],550 nM
same,Ki,Plasminogen,5500 nM
